Test: Determination of the dissolution rate (mass of filter residue)
Assay type: physicochemical
Conditions: summary of Table 4
Description: The moist filter residue is dried. The mass of the filter residue serves as a measure of the dissolution rate; the lower the mass, the better the dissolution rate.

CN(CC(=O)O)C(=N)N.O [creatine monohydrate]
dissolution rate (in words): slow dissolution rate
